Data published in article PMC3497018, “Anti-Human Rhinoviral Activity of Polybromocatechol Compounds Isolated from the Rhodophyta, Neorhodomela aculeata” (Marine Drugs, 2012).

Key:
HeLa cells = assay: Microscopic observation of morphology of non-infected HeLa cells treated with compound; settings: 20 μg/mL, 2 days
Experimental: After a 2-day infection of HeLa cells with HRV2 and HRV3, the effect of compound 1 and compound 3 on HRV-induced cytopathic effect (CPE) investigated.
Figure 3 The effect of compound 1 or compound 3 on HRV2 (left group; I) and HRV 3 (right group; II)-induced CPE. The virus-infected cells were treated with compound 1 or compound 3 of 20 μg/mL. After incubation at 32 °C in 5% of CO2 for 2 days, the cell morphology was photographed under a microscope.
Briefly, HeLa cells were seeded onto a 96-well culture plate at a concentration of 2 × 10^4 cells per well. The next day, the medium was removed and washed with PBS. Then, 0.09 mL of diluted virus suspension and 0.01 mL of medium supplemented with 20 mM MgCl2 containing compound 1 or compound 3 of 20 μg/mL were added. After incubation at 32 °C in 5% CO2 for 2 days, the morphology of cells was observed under microscope of 32 × 10 magnifications (St Ernst-Leitz, Wetzlar, Germany), and images were recorded.

HRV2 = assay: Antiviral activity, SRB method using CPE reduction, HRV2-infected HeLa cells; assay type: cell-based, human rhinovirus
Experimental: (§1) HRV 2 and 3 were provided by the ATCC (American Type Culture Collection, Manassas, VA, USA) and were propagated in human epitheloid carcinoma cervix (HeLa) cells at 32 °C. HeLa cells were maintained in minimal essential medium (MEM) supplemented with 10% fetal bovine serum (FBS) and 0.01% antibiotic-antimycotic.
(§2) Assays of antiviral activity and cytotoxicity were evaluated by the SRB method using CPE reduction, recently reported. […] Next day, medium was removed and then washed with 1× phosphate buffered saline (PBS). Infectivity of virus stock was determined by the SRB method using cytopathic effect (CPE) reduction and was determined as infectivity of the virus by SRB ID50 (50% infective dose). […] The antiviral activity of each test material was determined with a 10-fold diluted concentration ranging from 0.1 to 100 μg/mL. Three wells were used as virus controls (virus-infected non-drug-treated cells) while three wells were used as cell controls (non-infected non-drug-treated cells). The culture plates were incubated at 37 °C in 5% CO2 for 2 days. […] The absorbance was read at 540 nm by using a VERSAmax microplate reader (Molecular Devices, Palo Alto, CA, USA) with a reference absorbance at 620 nm. […] The percent protection achieved by the test compound in HRV2 or HRV3-infected cells was calculated by the following formula: […]

HRV3 = assay: Antiviral activity, SRB method using CPE reduction, HRV3-infected HeLa cells; assay type: cell-based, human rhinovirus
Experimental: as §1, §2

Q: Which results are given for `NC(=O)c1ncn([C@@H]2O[C@H](CO)[C@@H](O)[C@H]2O)n1` [Ribavirin, reference compound]?
A: signs of cytotoxicity / cell morphology (HeLa cells): No signs of cytotoxicity; TI, therapeutic index = CC50/IC50 (HRV2; Table 2): 1.17; TI, therapeutic index = CC50/IC50 (HRV2; Table 4): 9.30; TI, therapeutic index = CC50/IC50 (HRV3; Table 2): 1.40; TI, therapeutic index = CC50/IC50 (HRV3; Table 4): 3.93
